Organism: Bos taurus
Assay: Ability to stimulate catechloamine release in bovine adrenal chromaffin cells

Q: CC(=O)C1=CCCC2CCC1N2 (stereo unspecified) was tested. Which EC50 did it give?
A: The EC50 was 2000 nM.

Reference: ChEMBL document CHEMBL1130264 (J Med Chem, 1997)
